The target of the assay is T1, 11b-HSD1 (Homo sapiens, UniProt P28845).
T1 construct: made in house; host or cells: E. coli DH10b-Tir
The assay can be described thus: in vitro enzymatic 11b-HSD1 dehydrogenase activity assay. The format is biochemical. The settings on record: 11b-HSD1 dehydrogenase assay; 10 μM each of cortisol and NADP+, 50 nM enzyme, 60 minutes at room temperature; reference point for this assay. The text has this:
The activity of compounds as 11b-HSD1 inhibitors may be assayed in vitro, in vivo or in a cell line. Provided below is an in vitro enzymatic 11b-HSD1 dehydrogenase activity assay for activity against 11b-HSD1.
Purified 11b-HSD1 may be obtained as follows: Residues 24 to 292 of 11-β-hydroxysteroid dehydrogenase isoform 1 was amplified from IMAGE clone 5193867 (ATCC clone 7277078) using PCR with the primers hsd1—24-f: 5′-[…]-3′ (SEQ. ID No. 1) and hsd1-292-r: 5′-[…]-3′ (SEQ. ID No. 2). The resulting PCR product was topocloned into the pBAD-ThioE vector (Invitrogen) that was modified by inserting a DNA sequence that codes for […] at the cloning site and adapted for TOPOcloning PCR (Invitrogen). […]
The inhibitory properties of compounds relative to 11b-HSD1 may be determined using a white 384-well-plate format under the following reaction conditions: 50 mM Tris pH 7.5, 150 mM NaCl, 0.1 mM EDTA, 0.01% Brij35, 10 μM each of cortisol and NADP^+, 1% DMSO. Reaction product may be determined quantitatively by fluorescence intensity using a fluorescence plate reader (Molecular Devices Gemini) with a 340 nm excitation wavelength and a 460 nm emission wavelength. […]
IC50 values may be calculated by non-linear curve fitting of the compound concentrations and fluorescence intensities to the standard IC50 equation.

By UniProt entry, the sequences of proteins in these tests, tags left out. Residues count along the entry.
UniProt P28845, 24-292: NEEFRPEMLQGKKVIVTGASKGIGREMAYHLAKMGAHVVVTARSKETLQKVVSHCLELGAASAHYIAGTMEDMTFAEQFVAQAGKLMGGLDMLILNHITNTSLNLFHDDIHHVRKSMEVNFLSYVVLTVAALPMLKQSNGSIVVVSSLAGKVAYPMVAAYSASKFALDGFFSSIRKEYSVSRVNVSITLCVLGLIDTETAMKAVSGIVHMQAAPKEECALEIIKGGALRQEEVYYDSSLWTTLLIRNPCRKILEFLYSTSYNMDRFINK

Each structure is given as a SMILES string.

As usually defined, the IC50 is the midpoint of a concentration-inhibition curve. The low end stands for greater potency in that assay, the high end for weaker potency in that assay.

Turning to `CC1(C)[C@@H](OC(=O)CCC(=O)O)CC[C@]2(C)[C@H]3C(=O)C=C4[C@@H]5C[C@@](C)(C(=O)O)CC[C@]5(C)CC[C@@]4(C)[C@]3(C)CC[C@@H]12` [carbenoxolone], the half-maximal inhibitory concentration (IC50) was 100 nM.

The values above are taken from patent publication US7759339B2, “Hydroxysteroid dehydrogenase inhibitors” (Takeda San Diego, Inc., priority 2005, dated 2010).
